Measurements as given in patent US9403799B2.
Structures can show the parent of a compound that is named as a salt.

Amino acid sequences for entries named in this document (tags omitted). Residues count along the entry.
UniProt P08581, 25-1390 limits assumed: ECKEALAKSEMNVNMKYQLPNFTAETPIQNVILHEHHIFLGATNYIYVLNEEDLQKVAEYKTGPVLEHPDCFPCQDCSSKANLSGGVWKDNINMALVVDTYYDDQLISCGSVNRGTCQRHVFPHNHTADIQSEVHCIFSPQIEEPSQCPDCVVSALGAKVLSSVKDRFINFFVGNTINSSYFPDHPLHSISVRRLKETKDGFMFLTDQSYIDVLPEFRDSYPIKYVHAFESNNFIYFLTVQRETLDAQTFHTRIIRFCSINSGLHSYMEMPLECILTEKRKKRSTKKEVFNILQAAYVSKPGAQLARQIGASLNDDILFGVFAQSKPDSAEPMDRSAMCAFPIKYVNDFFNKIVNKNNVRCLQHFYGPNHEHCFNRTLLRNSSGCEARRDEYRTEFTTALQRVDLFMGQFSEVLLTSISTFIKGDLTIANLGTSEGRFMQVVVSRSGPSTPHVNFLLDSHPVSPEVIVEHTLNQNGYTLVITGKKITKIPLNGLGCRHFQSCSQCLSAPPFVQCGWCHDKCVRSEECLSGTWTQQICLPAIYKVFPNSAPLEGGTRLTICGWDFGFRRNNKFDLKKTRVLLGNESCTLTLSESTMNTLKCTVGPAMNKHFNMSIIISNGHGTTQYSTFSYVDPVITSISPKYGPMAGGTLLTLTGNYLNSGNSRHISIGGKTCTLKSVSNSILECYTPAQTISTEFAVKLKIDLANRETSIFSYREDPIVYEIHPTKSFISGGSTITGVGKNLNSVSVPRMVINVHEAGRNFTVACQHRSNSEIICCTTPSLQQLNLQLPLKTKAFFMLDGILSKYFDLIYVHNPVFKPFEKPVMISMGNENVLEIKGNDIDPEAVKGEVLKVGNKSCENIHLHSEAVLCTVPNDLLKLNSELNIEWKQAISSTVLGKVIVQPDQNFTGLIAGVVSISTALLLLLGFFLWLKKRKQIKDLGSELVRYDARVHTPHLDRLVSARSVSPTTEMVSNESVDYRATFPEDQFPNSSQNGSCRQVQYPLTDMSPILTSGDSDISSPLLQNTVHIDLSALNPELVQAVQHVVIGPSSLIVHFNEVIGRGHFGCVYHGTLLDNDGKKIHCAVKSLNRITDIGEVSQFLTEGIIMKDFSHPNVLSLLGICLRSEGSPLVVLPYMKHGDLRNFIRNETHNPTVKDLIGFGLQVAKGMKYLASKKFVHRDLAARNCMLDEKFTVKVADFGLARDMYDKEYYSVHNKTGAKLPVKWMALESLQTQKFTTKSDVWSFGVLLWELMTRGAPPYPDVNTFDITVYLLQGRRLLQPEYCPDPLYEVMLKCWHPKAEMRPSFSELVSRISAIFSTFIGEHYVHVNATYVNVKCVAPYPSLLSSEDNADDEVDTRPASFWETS

Columns and labels:
[1] = target: T1, Met kinase (Homo sapiens (Human), UniProt P08581); experiment: Flashplate method (Met kinase), enzyme assay; type: biochemical; settings: Met kinase inhibition
[2] = target: T1, Met kinase; experiment: Met kinase inhibition, cell assay; type: cell-based

SMILES | IC50 [1] | IC50 [2]
Cn1cc(-c2ccc(=O)n(Cc3cccc(-c4ncc(OCCN5CCOCC5)cn4)c3)n2)cn1 [Compound A4, 6-(1-Methyl-1H-pyrazol-4-yl)-2-{3-[5-(2-morpholin-4-yl-ethoxy)pyrimidin-2-yl]benzyl}-2H-pyridazin-3-one, p-tosylate] | < 100 nM | 
Cn1cc(-c2ccc(=O)n(Cc3cccc(-c4ncc(OCCN5CCOCC5)cn4)c3)n2)cn1 [Compound A5, 6-(1-Methyl-1H-pyrazol-4-yl)-2-{3-[5-(2-morpholin-4-yl-ethoxy)pyrimidin-2-yl]benzyl}-2H-pyridazin-3-one, fumarate] |  | < 100 nM
